Columns and labels:
AT1R [1] = target: T1, AT1R (Homo sapiens, UniProt P30556); details: pIC50 or pKb from IUPHAR and/or Michel et al (2013), fimasartan from Choung et al 2018; cited from earlier work
AT1R [2] = target: T1, AT1R; assay: ARB potency or affinity at AT1R only (public sources: IUPHAR guide to pharmacology, Michel et al 2013, Choung et al 2018); format: binding; details: reference value
[3] = target: T2, co-stimulated CCR2-AT1R complexes (Homo sapiens, UniProt P30556); assay: Gαi protein dissociation assay (ligand-induced BRET) in HEK293FT cells co-stimulated with AngII and MCP-1/CCL2; format: cell-based; details: compared to AT1R only; ROUT Q=1
T2 construct: HA (haemagglutinin); expressed in transfected cells; host or cells: HEK293FT

| Structure (SMILES) | Potency (pIC50/pKb), AT1R only (AT1R [1]) | Fold decrease in potency, AT1R only (AT1R [2]) | potency for inhibition of Gαi protein activation at co-stimulated CCR2-AT1R complexes (outlier analysis) [3] |
| --- | --- | --- | --- |
| CCCc1nc(C(C)(C)O)c(C(=O)O)n1Cc1ccc(-c2ccccc2-c2nnn[nH]2)cc1 [Olmesartan] | 9.9 | 1.00 fold | – |
| CCCc1nc2c(C)cc(-c3nc4ccccc4n3C)cc2n1Cc1ccc(-c2ccccc2C(=O)O)cc1 [Telmisartan] | 8.61 | 1.00 fold | – |
| CCCCC(=O)N(Cc1ccc(-c2ccccc2-c2nnn[nH]2)cc1)[C@H](C(=O)O)C(C)C [Valsartan] | 9.26 | – | – |
| CCCCc1nc(Cl)c(C(=O)O)n1Cc1ccc(-c2ccccc2-c2nn[nH]n2)cc1 [EXP3174] | 9.62 | 1.00 fold | lower-than-expected potency |

— US20260315521A1, “THERAPEUTIC FORMULATIONS FOR KIDNEY DISEASE COMPRISING REPAGERMANIUM OR PROPAGERMANIUM AND/OR AT1R BLOCKERS” (DIMERIX BIOSCIENCE PTY LTD, priority 2023, published 2026)
